Test results: EP1121436B1, “NON-DESENSITIZING AMPA-RECEPTORS” (Max-Planck-Gesellschaft zur Förderung der Wissenschaften …, priority 1998, dated 2000)

Amino acid sequences for entries named in this document (tags omitted). A change or cut given only in a name is not applied to a line headed by its entry.
UniProt P19492: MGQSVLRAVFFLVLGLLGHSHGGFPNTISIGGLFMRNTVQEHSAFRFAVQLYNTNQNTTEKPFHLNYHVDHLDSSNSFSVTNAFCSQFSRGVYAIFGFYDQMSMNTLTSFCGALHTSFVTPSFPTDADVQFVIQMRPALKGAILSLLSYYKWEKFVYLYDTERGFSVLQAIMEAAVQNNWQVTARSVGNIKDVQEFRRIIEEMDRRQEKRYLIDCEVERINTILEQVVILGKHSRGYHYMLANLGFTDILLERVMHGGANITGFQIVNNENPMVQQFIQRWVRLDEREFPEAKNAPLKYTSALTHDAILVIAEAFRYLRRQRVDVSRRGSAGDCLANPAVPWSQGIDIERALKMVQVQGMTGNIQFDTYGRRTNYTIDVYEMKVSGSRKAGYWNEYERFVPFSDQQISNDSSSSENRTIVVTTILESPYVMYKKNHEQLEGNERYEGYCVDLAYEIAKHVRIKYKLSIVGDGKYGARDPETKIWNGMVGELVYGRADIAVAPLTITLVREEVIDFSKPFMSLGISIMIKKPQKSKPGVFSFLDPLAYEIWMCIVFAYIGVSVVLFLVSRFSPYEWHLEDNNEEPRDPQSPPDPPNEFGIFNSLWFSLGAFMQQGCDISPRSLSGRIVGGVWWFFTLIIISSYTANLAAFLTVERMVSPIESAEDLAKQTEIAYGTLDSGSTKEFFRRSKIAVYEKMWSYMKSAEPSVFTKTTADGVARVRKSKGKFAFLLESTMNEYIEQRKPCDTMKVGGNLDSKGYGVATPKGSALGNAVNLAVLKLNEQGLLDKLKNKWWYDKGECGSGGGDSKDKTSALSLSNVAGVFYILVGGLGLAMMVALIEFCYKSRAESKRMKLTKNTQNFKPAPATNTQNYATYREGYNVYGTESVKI
UniProt P42260: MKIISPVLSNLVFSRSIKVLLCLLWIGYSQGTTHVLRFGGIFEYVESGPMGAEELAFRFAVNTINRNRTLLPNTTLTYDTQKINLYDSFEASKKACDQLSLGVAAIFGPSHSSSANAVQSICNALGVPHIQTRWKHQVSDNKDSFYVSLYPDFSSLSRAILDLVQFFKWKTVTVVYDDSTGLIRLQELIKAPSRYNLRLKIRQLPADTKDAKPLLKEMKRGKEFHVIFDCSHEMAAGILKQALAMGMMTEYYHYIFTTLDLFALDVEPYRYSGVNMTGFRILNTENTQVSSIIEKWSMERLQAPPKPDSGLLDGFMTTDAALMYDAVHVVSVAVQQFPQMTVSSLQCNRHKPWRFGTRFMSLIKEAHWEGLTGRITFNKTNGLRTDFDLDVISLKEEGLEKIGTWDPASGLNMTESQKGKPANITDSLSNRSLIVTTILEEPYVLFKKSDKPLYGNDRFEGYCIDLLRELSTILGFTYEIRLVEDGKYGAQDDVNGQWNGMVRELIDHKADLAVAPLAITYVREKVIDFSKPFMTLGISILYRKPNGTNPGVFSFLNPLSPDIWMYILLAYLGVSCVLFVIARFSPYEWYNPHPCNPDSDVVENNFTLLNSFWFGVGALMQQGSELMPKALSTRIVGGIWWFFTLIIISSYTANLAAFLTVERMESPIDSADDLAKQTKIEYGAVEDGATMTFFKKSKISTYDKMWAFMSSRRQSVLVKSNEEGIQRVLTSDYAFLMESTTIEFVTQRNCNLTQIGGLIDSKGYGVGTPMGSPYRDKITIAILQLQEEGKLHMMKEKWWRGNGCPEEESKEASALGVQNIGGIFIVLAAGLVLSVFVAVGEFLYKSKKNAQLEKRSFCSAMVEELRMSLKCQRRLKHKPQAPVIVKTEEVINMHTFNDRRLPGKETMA

Target: T1, R6TM1R3(Y521L) (Rattus norvegicus, UniProt P19492+P42260, A582S/A630S/C576V/C595R/D598Q/D600P/D669E/D672E/E603P/E625D/E665V/E681A/F612L/G615S/H593E/I581V/I639V/INS589HLED/INS599P/K629R/K679E/L568V/L569F/L572I/L608I/L609F/L619F/L626I/M627S/N596D/N605E/P592E/S624C/T607G/T633G/V580L/V601D/V602P/V616L/Y521L/Y566C/Y590N)
T1 construct: the entire extracellular N-terminal region of GluR3flip was substituted by the corresponding region of GluR6; expressed in transfected cells; host or cells: HEK293, transient
Assay: Responses to kainate and effect of cyclothiazide (outside-out patch)
Type: cell-based

C=C(C)[C@H]1CN[C@H](C(=O)O)[C@H]1CC(=O)O [kainate]
P/S: 2.71±0.2 | RD: 155 ± 28 s⁻¹
